# Binding of CDR-mutated scFvs to a peptide of the spike HR2 region

Data: MIT Lincoln Laboratory AlphaSeq set, Engelhart et al. 2022, doi:10.1038/s41597-022-01779-4, as distributed in FLAb.

Antigen: PDVDLGDISGINAS, a 14-residue peptide of the SARS-CoV-2 spike HR2 region.

Ab-14 is the parent antibody, in scFv form: VH, then a 15-residue (Gly4Ser)3 linker, then VL. The heavy chain is unchanged in all variants.
VH: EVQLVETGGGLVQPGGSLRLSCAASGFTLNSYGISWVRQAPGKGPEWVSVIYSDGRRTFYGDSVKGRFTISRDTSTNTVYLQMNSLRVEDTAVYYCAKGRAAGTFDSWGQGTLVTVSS
VL: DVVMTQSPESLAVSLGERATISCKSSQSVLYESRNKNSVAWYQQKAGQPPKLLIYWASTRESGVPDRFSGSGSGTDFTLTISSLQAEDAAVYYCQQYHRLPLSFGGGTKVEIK

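The parent was found by panning a naive human phage display library on the peptide. Library AAYL50 holds single substitutions and randomly drawn double and triple substitutions in the CDRs. Affinity was read by AlphaSeq, a pooled yeast mating assay with surface-displayed partners. Mating (16 h, 30 °C) was followed by selection of diploids and sequencing of their barcodes. The ratio of observed to expected reads was calibrated, replicate by replicate, on BCL2-family standards whose Kd was known from biolayer interferometry. Mating was done three times.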

Positions count from residue 1 of the parent VL; Q96N puts N in place of Q. This list gathers variants with a substitution at H98 (VL, numbered from residue 1). The Kd shown is the geometric mean over detected replicates; a lower Kd is a better binder. Where no diploid with the target was found in any replicate, the entry reads "no signal": below detection, most likely a poor binder, though not proof of it. Background: pairings of library AAYL50 with three empty control strains gave a value in 18% of cases (median 15 µM, 5th percentile 970 nM). Values in that range, when seen in few replicates, are hard to tell from nonspecific mating. Also given: how often the same scFv was detected with the empty control strains.

Variant Q96N Y97G H98Q gave no signal (0 of 3 replicates; controls 0 of 9).
Variant Y31P R34H H98C gave 33 µM (1 of 3 replicates; controls 2 of 9).
Variant Q95W Y97Q H98A gave no signal (0 of 3 replicates; controls 1 of 9).
Variant K24Y S28F H98M gave 300 nM (1 of 3 replicates; controls 0 of 9).
Variant S26L R34Y H98L gave no signal (0 of 3 replicates; controls 0 of 9).
Variant W56D Q96L H98M gave 580 pM (3 of 3 replicates; controls 7 of 9).
Variant Y31A W56S H98V gave 740 pM (3 of 3 replicates; controls 4 of 9).
Variant R60S Y97I H98Q gave no signal (0 of 3 replicates; controls 0 of 9).
Variant S28P H98D R99G gave 530 nM (3 of 3 replicates; controls 5 of 9).
Variant Y31I Q95V H98C gave 12 nM (3 of 3 replicates; controls 1 of 9).
Variant K24H A40I H98I gave no signal (0 of 3 replicates; controls 0 of 9).
Variant S25P Y97S H98G gave 3.4 µM (1 of 3 replicates; controls 0 of 9).
Variant N37Q V39T H98N gave no signal (0 of 3 replicates; controls 3 of 9).
Variant R34S W56Y H98Y gave no signal (0 of 3 replicates; controls 2 of 9).
Variant W56C H98C gave 9.4 µM (3 of 3 replicates; controls 2 of 9).
Variant S38M W56Y H98D gave 16 nM (3 of 3 replicates; controls 3 of 9).
Variant Y31V R34D H98T gave 2.8 nM (3 of 3 replicates; controls 1 of 9).
Variant L30E T59C H98Y gave 3.3 nM (3 of 3 replicates; controls 0 of 9).
Variant S33I S58G H98C gave 1.4 µM (3 of 3 replicates; controls 3 of 9).
Variant V39L H98A S103Y gave 370 nM (3 of 3 replicates; controls 3 of 9).
Variant S38E V39W H98G gave no signal (0 of 3 replicates; controls 1 of 9).
Variant S28V Q96E H98C gave 15 µM (2 of 3 replicates; controls 3 of 9).
Variant S26F V29L H98Q gave 140 nM (3 of 3 replicates; controls 0 of 9).
Variant H98P R99T gave 770 µM (1 of 3 replicates; controls 1 of 9).
Variant A40F Y97T H98R gave no signal (0 of 3 replicates; controls 0 of 9).
Variant W56M Q95Y H98F gave 3.4 nM (3 of 3 replicates; controls 2 of 9).
Variant S25D S33H H98P gave no signal (0 of 3 replicates; controls 0 of 9).
Variant K36E W56Y H98S gave 25 nM (3 of 3 replicates; controls 3 of 9).
Variant K24P Q27N H98K gave 660 nM (1 of 3 replicates; controls 0 of 9).
Variant K24Y K36P H98W gave 4.4 µM (3 of 3 replicates; controls 1 of 9).
Variant K24R H98Q S103K gave 3.7 µM (3 of 3 replicates; controls 2 of 9).
Variant A40L W56G H98Q gave 120 µM (1 of 3 replicates; controls 3 of 9).
Variant K24V V29W H98Q gave 130 nM (3 of 3 replicates; controls 0 of 9).
Variant S33M Q96M H98V gave no signal (0 of 3 replicates; controls 1 of 9).
Variant H98E gave 16 nM (3 of 3 replicates; controls 6 of 9).
Variant S58K H98W gave 23 nM (3 of 3 replicates; controls 3 of 9).
Variant S38M E61K H98I gave no signal (0 of 3 replicates; controls 1 of 9).
Variant S26Q H98V P101Q gave 23 nM (3 of 3 replicates; controls 0 of 9).

The 2 strongest on average among those seen in every replicate, once more:

For W56D Q96L H98M, the assay gave 580 pM (3 of 3 replicates; controls 7 of 9).
For Y31A W56S H98V, the assay gave 740 pM (3 of 3 replicates; controls 4 of 9).